Literature values in patent US20250249115A1, “COMBINATION THERAPY FOR TREATING TUMOR ANTIGEN EXPRESSING CANCERS” (Gilead Sciences, Inc., priority 2022, published 2025).

System: esterase activity residing primarily in the liver
Conditions: cited from earlier work

## CCc1c2c(nc3ccc(OC(=O)N4CCC(N5CCCCC5)CC4)cc13)-c1cc3c(c(=O)n1C2)COC(=O)[C@]3(O)CC [irinotecan]
  fraction converted to the active SN-38 form: 5%
